Values quoted from earlier work in PMC5131886 (CPT: Pharmacometrics & Systems Pharmacology, 2016).

Test system: cells expressing VEGFR2
Conditions: read-out: in vitro measured IC50 for cells expressing VEGFR2; cited from earlier work

## CCN(CC)CCNC(=O)c1c(C)[nH]c(/C=C2\C(=O)Nc3ccc(F)cc32)c1C [Sunitinib, Sunitinib malate]
  IC50: 10 nM
